Assay results as given in article PMC11510237, “New Pyrazole/Pyrimidine-Based Scaffolds as Inhibitors of Heat Shock Protein 90 Endowed with Apoptotic Anti-Breast Cancer Activity” (2024).
Read-outs that look alike come from different tables or passages of the source.

Tests used:
[1] = tested on: MCF-7 cells
[2] = tested on: MDA-MB231 cells

## Nc1nn(-c2ccc([N+](=O)[O-])cc2[N+](=O)[O-])c(N)c1N=Nc1cccc([N+](=O)[O-])c1
[1]; MCF-7, 1 µg/ml
  Inhibitory %: 0%
  Viability %: 100%
[1]; MCF-7, 2 µg/ml
  Inhibitory %: 0%
  Viability %: 100%
[1]; MCF-7, 3.9 µg/ml
  Inhibitory %: 0%
  Viability %: 100%
[1]; MCF-7, 7.8 µg/ml
  Inhibitory %: 0%
  Viability %: 100%
[1]; MCF-7, 15.6 µg/ml
  Inhibitory %: 0%
  Viability %: 100%
[1]; MCF-7, 31.25 µg/ml
  Inhibitory %: 0%
  Viability %: 100%
[1]; MCF-7, 62.5 µg/ml
  Inhibitory %: 1.95%
  Viability %: 98.05%
[1]; MCF-7, 125 µg/ml
  Inhibitory %: 17.24%
  Viability %: 82.76%
[1]; MCF-7, 250 µg/ml
  Inhibitory %: 50.73%
  Viability %: 49.27%
[1]; MCF-7, 500 µg/ml
  Inhibitory %: 81.21%
  Viability %: 18.79%
[2]; 1.56 µM
  Average of Relative viability of cells (%) MDA-231: 100%
[2]; 3.125 µM
  Average of Relative viability of cells (%) MDA-231: 100%
[2]; 6.25 µM
  Average of Relative viability of cells (%) MDA-231: 100%
[2]; 12.5 µM
  Average of Relative viability of cells (%) MDA-231: 85.2%
[2]; 25 µM
  Average of Relative viability of cells (%) MDA-231: 71.1%
[2]; 50 µM
  Average of Relative viability of cells (%) MDA-231: 59.8%
[2]; 100 µM
  Average of Relative viability of cells (%) MDA-231: 40.7%
